The record followed here is patent EP4834907A1, “HETEROCYCLIC COMPOUND, AND PHARMACEUTICAL COMPOSITION THEREOF AND USE THEREOF” (dated 2026).

By UniProt entry, the sequences of proteins in these tests, tags left out. Residues count along the entry.
UniProt P29597, 589-875 limits assumed: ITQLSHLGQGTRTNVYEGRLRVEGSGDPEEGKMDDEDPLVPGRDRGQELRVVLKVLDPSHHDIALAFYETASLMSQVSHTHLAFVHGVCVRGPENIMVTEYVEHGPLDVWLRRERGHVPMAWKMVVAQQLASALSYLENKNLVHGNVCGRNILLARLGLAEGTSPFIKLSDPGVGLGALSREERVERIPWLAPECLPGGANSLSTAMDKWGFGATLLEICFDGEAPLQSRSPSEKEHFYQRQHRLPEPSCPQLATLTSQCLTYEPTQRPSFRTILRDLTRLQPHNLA

One test relates to Ba/F3-FL-TYK2-E957D cells. Kind of test: Cell proliferation inhibition, CTG (CellTiter-Glo) luminescence assay. As to conditions: read-out: Ba/F3-TYK2-E957D IC50 nM, 72 h incubation.
For `CNc1cc(Nc2cccc3c2oc2ccccc23)nc2c(C(=O)NC(C)C)cnn12`, the IC50 is 331 nM.

Take `CNc1cc(Nc2cccc3c2oc2nn(C)cc23)nn2c(C(=O)N[C@@H]3CC[C@H]3OC)cnc12`: the IC50 was found to be 0.28 nM.

For the molecule `CNc1cc(Nc2cccc3c2oc2ccccc23)nc2c(C(=O)N[C@@H]3COC[C@H]3OC)cnn12`, the IC50 is 325 nM.

For `CNc1cc(Nc2cccc3c2C(=O)c2ccccc2-3)nn2c(C(=O)N[C@@H]3CC[C@H]3OC)cnc12`, the IC50 was 0.3 nM.

For `CNc1cc(Nc2cccn3c2nc2ccc(C)nc23)nn2c(C(=O)N[C@@H]3CC[C@H]3OC)cnc12`, the IC50 came out at 0.39 nM.

Take `CNc1cc(Nc2cccc3c2oc2nc(C)c(C)cc23)nn2c(C(=O)NC3CCC3OC)cnc12` (stereo not drawn): the IC50 worked out at 0.07 nM.

For `CNc1cc(Nc2ccc(=O)n3c2oc2ccccc23)nn2c(C(=O)N[C@@H]3CC[C@H]3OC)cnc12`, the IC50 is 210 nM.

Consider `CNc1cc(Nc2cccc3c2oc2ccnnc23)nn2c(C(=O)NC3CCC3OC)cnc12` (stereo not drawn), for which the IC50 came to 2.1 nM.

As for `CNc1cc(Nc2cccc3c2sc2ccccc23)nn2c(C(=O)N[C@@H]3CC[C@H]3OC)cnc12`, the IC50 came out at 10.9 nM.

`CNc1cc(Nc2cccc3c2oc2ccccc23)nn2c(C(=O)NC3CCC3)cnc12`: the IC50 is 11.7 nM.

`CNc1cc(Nc2cccc3c2oc2cnc(Cl)cc23)nn2c(C(=O)N[C@@H]3CC[C@H]3OC)cnc12`: the IC50 is 0.22 nM.

On to `CNc1cc(Nc2cccc3c2oc2ccccc23)nc2c(C(=O)N[C@@H]3CCC[C@H]3O)cnn12`, for which the IC50 was 81.8 nM.

In the case of `CNc1cc(Nc2cccc3c2oc2cnc(C)cc23)nn2c(C(=O)N[C@@H]3CC[C@H]3OC)cnc12`, the IC50 amounted to 0.05 nM.

As for `CNc1cc(Nc2cccc3c2oc2cnc(OC)nc23)nn2c(C(=O)N[C@@H]3CC[C@H]3OC)cnc12`, the IC50 came out at 0.24 nM.

With `CNc1cc(Nc2cccc3c2oc2ccccc23)nc2c(C(=O)N[C@@H]3COC[C@H]3O)cnn12`, the IC50 was 107 nM.

With `CNc1cc(Nc2ccnc3c2oc2ccccc23)nn2c(C(=O)N[C@@H]3C[C@@H]3F)cnc12`, the IC50 came out at 107 nM.

Take `CNc1cc(Nc2cccc3c2oc2ccccc23)nc2c(C(=O)NCC(C)(C)O)cnn12`: the IC50 came out at 135 nM.

`CNc1cc(Nc2cccc3c2oc2cnc(C4CC4)nc23)nn2c(C(=O)NC3CCC3OC)cnc12` (stereo not drawn): the IC50 is 0.18 nM.

`CNc1cc(Nc2cccc3c2oc2c(C)ccnc23)nn2c(C(=O)NC3CCC3OC)cnc12` (stereo not drawn): the IC50 was 0.45 nM.

Regarding `CNc1cc(Nc2cccc3c2C(=O)c2ccc(C)nc2-3)nn2c(C(=O)N[C@@H]3CC[C@H]3OC)cnc12`, the IC50 was 0.39 nM.

As to `CNc1cc(Nc2cccc3c2oc2cccnc23)nn2c(C(=O)N[C@@H]3CC[C@H]3OC)cnc12`, the IC50 turned out to be 0.26 nM.

Turning to `CNc1cc(Nc2cccc3c2oc2c[nH]c(=O)nc23)nn2c(C(=O)N[C@@H]3CC[C@H]3OC)cnc12`, the IC50 stood at 20.6 nM.

On to `CNc1cc(Nc2ccc3oc4cccnc4n3c2=O)nn2c(C(=O)N[C@@H]3CC[C@H]3OC)cnc12`, for which the IC50 was determined as 74.8 nM.

As for `CNc1cc(Nc2ccc3oc4ccccc4n3c2=O)nn2c(C(=O)N[C@@H]3CC[C@H]3OC)cnc12`, the IC50 is 38.1 nM.

For `CNc1cc(Nc2cccn3c2nc2cncnc23)nn2c(C(=O)N[C@@H]3CC[C@H]3OC)cnc12`, the IC50 is 0.4 nM.

On to `CNc1cc(Nc2cccc3c2oc2cc(=O)n(C)cc23)nn2c(C(=O)N[C@@H]3CC[C@H]3OC)cnc12`, for which the IC50 amounted to 0.53 nM.

Regarding `CNc1cc(Nc2cccc3c2oc2ccccc23)nn2c(C(=O)N[C@@H]3C[C@@H]3F)cnc12`, the IC50 was 4 nM.

`CNc1cc(Nc2cncc3c2oc2ccc(C)nc23)nn2c(C(=O)N[C@@H]3CC[C@H]3OC)cnc12`: the IC50 was found to be 6.21 nM.

Regarding `CNc1cc(Nc2cccc3c2oc2ccc(C(F)(F)F)nc23)nn2c(C(=O)NC3CCC3OC)cnc12` (stereo not drawn), the IC50 was determined as 0.22 nM.

Regarding `CNc1cc(Nc2cccc3c2oc2nc(C)c(C)nc23)nn2c(C(=O)NC3CCC3OC)cnc12` (stereo not drawn), the IC50 worked out at 0.09 nM.

In the case of `CNc1cc(Nc2cccc3c2oc2ccccc23)nn2c(C(=O)N[C@@H]3CC[C@H]3OC)cnc12`, the IC50 was 1.1 nM.

For `CNc1cc(Nc2cccc3c2oc2cc(C)cnc23)nn2c(C(=O)NC3CCC3OC)cnc12` (stereo not drawn), the IC50 came out at 0.32 nM.

Consider `CNc1cc(Nc2cccc3c2oc2ccccc23)nc2c(C(=O)N[C@@H]3C[C@@H]3F)cnn12`, for which the IC50 came to 3.5 nM.

For `CNc1cc(Nc2cccc3c2oc2ccccc23)nc2c(C(=O)NC3CC34CCC4)cnn12` (stereo not drawn), the IC50 amounted to 106 nM.

On to `CNc1cc(Nc2cccc3c2S(=O)(=O)c2ccccc2-3)nn2c(C(=O)N[C@@H]3CC[C@H]3OC)cnc12`, for which the IC50 is 5.18 nM.

As to `CNc1cc(Nc2cccc3c2oc2ccccc23)nc2c(C(=O)NC3CC3)cnn12`, the IC50 turned out to be 8.1 nM.

Regarding `CNC(=O)c1nnc(NC(=O)C2CC2)cc1Nc1cccc(-c2ncn(C)n2)c1OC`, the IC50 turned out to be 0.8 nM.

Take `CNc1cc(Nc2cccc3c2oc2cnc(F)cc23)nn2c(C(=O)N[C@@H]3CC[C@H]3OC)cnc12`: the IC50 amounted to 0.12 nM.

As to `CNc1cc(Nc2cccn(-c3ccccn3)c2=O)nc2c(C(=O)N[C@@H]3CC[C@H]3OC)cnn12`, the IC50 is 3.1 nM.

As for `CNc1cc(Nc2ccnc3c2oc2ccccc23)nc2c(C(=O)N[C@@H]3C[C@@H]3F)cnn12`, the IC50 was 65.9 nM.

`CNc1cc(Nc2cccc3c2C(=O)N2CCC(=O)C=C32)nn2c(C(=O)N[C@@H]3CC[C@H]3OC)cnc12`: the IC50 was found to be 4.07 nM.

As for `CNc1cc(Nc2cccc3c2oc2nccnc23)nn2c(C(=O)N[C@@H]3CC[C@H]3OC)cnc12`, the IC50 was 1 nM.

As to `CNc1cc(Nc2cccc3c2oc2ccccc23)nc2c(C(=O)NC3CC34CC4)cnn12` (stereo not drawn), the IC50 was 31.8 nM.

Turning to `CNc1cc(Nc2cccc3c2oc2ncc(C#N)cc23)nn2c(C(=O)N[C@@H]3CC[C@H]3OC)cnc12`, the IC50 amounted to 0.07 nM.

`CNc1cc(Nc2cccc3c2oc2nccc(C)c23)nn2c(C(=O)NC3CCC3OC)cnc12` (stereo not drawn): the IC50 was 0.56 nM.

As to `CNc1cc(Nc2cccc3c2oc2ccc(C)nc23)nn2c(C(=O)NC3CCC3OC)cnc12` (stereo not drawn), the IC50 worked out at 0.09 nM.

For the molecule `CNc1cc(Nc2ccc3n(c2=O)Cc2ccccc2-3)nn2c(C(=O)N[C@@H]3CC[C@H]3OC)cnc12`, the IC50 amounted to 87.2 nM.

Turning to `CNc1cc(Nc2cccc3c2oc2ncc(F)cc23)nn2c(C(=O)N[C@@H]3CC[C@H]3OC)cnc12`, the IC50 was 0.06 nM.

Regarding `CNc1cc(Nc2cccc3c2oc2ccccc23)nc2c(C(=O)NCC(C)(C)CO)cnn12`, the IC50 worked out at 6.8 nM.

Regarding `CNc1cc(Nc2cccc3c2oc2cnc(C#N)cc23)nn2c(C(=O)N[C@@H]3CC[C@H]3OC)cnc12`, the IC50 was determined as 0.09 nM.

`CNc1cc(Nc2cccc3c2oc2ncc(C)cc23)nn2c(C(=O)N[C@@H]3CC[C@H]3OC)cnc12`: the IC50 amounted to 0.11 nM.

Consider `CNc1cc(Nc2cccc3c2oc2cc(C(F)(F)F)cnc23)nn2c(C(=O)N[C@@H]3CC[C@H]3OC)cnc12`, for which the IC50 was found to be 0.32 nM.

As for `CNc1cc(Nc2cccc3c2oc2ccccc23)nc2c(C(=O)NC3CCC3)cnn12`, the IC50 stood at 15.3 nM.

For the molecule `CNc1cc(Nc2cccc3c2oc2ccccc23)nc2c(C(=O)N[C@@H]3CC[C@H]3OC)cnn12`, the IC50 came out at 2.4 nM.

In the case of `CNc1cc(Nc2cccc3c2oc2ccc(F)nc23)nn2c(C(=O)N[C@@H]3CC[C@H]3OC)cnc12`, the IC50 turned out to be 0.27 nM.

For `CNc1cc(Nc2cccc3c2C(=O)c2cccnc2-3)nn2c(C(=O)N[C@@H]3CC[C@H]3OC)cnc12`, the IC50 was found to be 0.07 nM.

For `CNc1cc(Nc2cccc3c2oc2cnc(C)nc23)nn2c(C(=O)NC3CCC3OC)cnc12` (stereo not drawn), the IC50 amounted to 0.06 nM.

Consider `CNc1cc(Nc2cccc3c2oc2cncnc23)nn2c(C(=O)NC3CCC3OC)cnc12` (stereo not drawn), for which the IC50 was found to be 0.3 nM.

`CNc1cc(Nc2cccc3c2oc2cc(F)cnc23)nn2c(C(=O)N[C@@H]3CC[C@H]3OC)cnc12`: the IC50 was 0.18 nM.

The target of the next test is TYK2 JH2 pseudokinase (Homo sapiens, UniProt P29597). The test can be described thus: TYK2 JH2 in vitro enzyme binding experiment (TR-FRET tracer competition). As to conditions: read-out: TYK2 JH2 IC50 nM, TYK2 JH2 pseudokinase 0.5 nM, Tracer 1 nM. (TR-FRET usually uses a lanthanide donor and a delayed reading to cut background.)
In the case of `CNc1cc(Nc2cccc3c2oc2nc(C)c(C)cc23)nn2c(C(=O)NC3CCC3OC)cnc12` (stereo not drawn), the IC50 is less than 10 nM.

On to `CNc1cc(Nc2cccc3c2oc2cnc(OC)nc23)nn2c(C(=O)N[C@@H]3CC[C@H]3OC)cnc12`, for which the IC50 is less than 10 nM.

Regarding `CNc1cc(Nc2cccc3c2oc2cnc(C4CC4)nc23)nn2c(C(=O)NC3CCC3OC)cnc12` (stereo not drawn), the IC50 is less than 10 nM.

Consider `CNc1cc(Nc2cccc3c2oc2cccnc23)nn2c(C(=O)N[C@@H]3CC[C@H]3OC)cnc12`, for which the IC50 was less than 10 nM.

`CNc1cc(Nc2ccc3oc4ccccc4n3c2=O)nn2c(C(=O)N[C@@H]3CC[C@H]3OC)cnc12`: the IC50 is less than 10 nM.

With `CNc1cc(Nc2cccc3c2oc2ccc(C(F)(F)F)nc23)nn2c(C(=O)NC3CCC3OC)cnc12` (stereo not drawn), the IC50 was less than 10 nM.

Turning to `CNc1cc(Nc2cccc3c2oc2nc(C)c(C)nc23)nn2c(C(=O)NC3CCC3OC)cnc12` (stereo not drawn), the IC50 is less than 10 nM.

With `CNc1cc(Nc2cccc3c2oc2ccc(C)nc23)nn2c(C(=O)NC3CCC3OC)cnc12` (stereo not drawn), the IC50 was less than 10 nM.

Regarding `CNc1cc(Nc2cccc3c2oc2cnc(C)nc23)nn2c(C(=O)NC3CCC3OC)cnc12` (stereo not drawn), the IC50 was less than 10 nM.

For the molecule `CNc1cc(Nc2cccc3c2oc2cc(F)cnc23)nn2c(C(=O)N[C@@H]3CC[C@H]3OC)cnc12`, the IC50 was less than 10 nM.
